Reference: patent US11497726B2, “Topical therapy for the treatment of cervical intraepithelial neoplasia (CIN) and cervical cancer using nanoparticles of taxanes” (DFB SORIA, LLC, priority 2018, dated 2022)

Test: Solubility of the active in the receptor fluid
Assay type: physicochemical
Conditions: 96 wt % PBS pH 7.4 and 4 wt % hydroxyl propyl beta cyclodextrin

## paclitaxel
  solubility of the active in the receptor fluid: ~0.4 µg/mL
